Results taken from patent US5453488A, “Amino-substituted heterocycles as renin inhibitors” (Warner-Lambert Company, priority 1993, dated 1995).

By UniProt entry, the sequences of proteins in these tests, tags left out. Residues count along the entry.
UniProt P00797, 67-406 limits assumed: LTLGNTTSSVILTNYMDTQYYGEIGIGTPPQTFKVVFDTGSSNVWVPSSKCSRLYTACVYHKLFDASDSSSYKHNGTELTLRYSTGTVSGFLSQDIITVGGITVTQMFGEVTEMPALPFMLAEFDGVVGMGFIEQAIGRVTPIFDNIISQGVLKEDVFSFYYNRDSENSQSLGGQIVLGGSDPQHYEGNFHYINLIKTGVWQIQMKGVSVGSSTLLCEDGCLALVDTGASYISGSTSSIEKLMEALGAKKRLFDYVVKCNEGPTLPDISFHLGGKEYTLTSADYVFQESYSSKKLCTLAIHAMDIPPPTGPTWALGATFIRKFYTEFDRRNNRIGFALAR

Tests used:
renin = renin (Homo sapiens, UniProt P00797); test: In vitro renin inhibition, radioimmunoassay for angiotensin I; assay type: biochemical; conditions: renin with angiotensinogen, 2 hours at 37° C.
[1] = tested on: unanesthetized, sodium-deplete, normotensive Rhesus or Cynomolgus monkeys; test: In vivo blood pressure lowering in conscious sodium-deplete monkeys
chymotrypsin = test: In vitro chymotrypsin stability

IC50 (renin): 0.58 nM
Structure (SMILES): CC(C)C[C@H](O)[C@H](O)[C@H](CC1CCCCC1)NC(=O)C(NC(=O)[C@H](Cc1ccccc1)NS(=O)(=O)N1CCOCC1)c1csc(N)n1 (stereo partly shown)

IC50 (renin): 15.3 nM
Structure (SMILES): CC(C)C[C@H](O)[C@H](O)[C@H](CC1CCCCC1)NC(=O)[C@H](CCc1csc(N)n1)NC(=O)[C@H](Cc1ccccc1)NS(=O)(=O)N1CCOCC1

IC50 (renin): 3.6 nM
Structure (SMILES): Nc1nc(C[C@H](NC(=O)[C@H](Cc2ccccc2)NS(=O)(=O)N2CCOCC2)C(=O)N[C@@H](CC2CCCCC2)[C@@H](O)CC(=O)NCCN(CCO)CCO)cs1

IC50 (renin): 164 nM
Structure (SMILES): O=C(Nc1nc(C[C@H](NC(=O)[C@H](Cc2ccccc2)NS(=O)(=O)N2CCOCC2)C(=O)N[C@@H](CC2CCCCC2)C(O)C(F)(F)C(=O)NCCN2CCOCC2)cs1)OCc1ccccc1 (stereo partly shown)

Percent Parent Remaining (3 hrs) Buffer + chymotrypsin (chymotrypsin): 100%
Percent Parent Remaining (3 hrs) Buffer only (chymotrypsin): 100%
Structure (SMILES): CC(C)C[C@H](O)[C@H](O)[C@H](CC1CCCCC1)NC(=O)[C@H](Cc1csc(N)n1)NC(=O)[C@H](Cc1ccccc1)NS(=O)(=O)N1CCOCC1 (single isomer, unassigned)
mm Hg drop in mean B.P. at 1 hr ([1]; PO 10 mg/kg): 14 mm Hg
mm Hg drop in mean B.P. at 2 hr ([1]; PO 10 mg/kg): 20 mm Hg
mm Hg drop in mean B.P. at 4 hr ([1]; PO 10 mg/kg): 15 mm Hg
mm Hg drop in mean B.P. at 6 hr ([1]; PO 10 mg/kg): 12 mm Hg
mm Hg drop in mean B.P. Max ([1]; PO 10 mg/kg): 23 mm Hg
mm Hg drop in mean B.P. at 1 hr ([1]; PO 30 mg/kg): 30 mm Hg
mm Hg drop in mean B.P. at 2 hr ([1]; PO 30 mg/kg): 34 mm Hg
mm Hg drop in mean B.P. at 4 hr ([1]; PO 30 mg/kg): 29 mm Hg
mm Hg drop in mean B.P. at 6 hr ([1]; PO 30 mg/kg): 29 mm Hg
mm Hg drop in mean B.P. Max ([1]; PO 30 mg/kg): 38 mm Hg

IC50 (renin): 0.34 nM
Percent Parent Remaining (3 hrs) Buffer + chymotrypsin (chymotrypsin): 100%
Percent Parent Remaining (3 hrs) Buffer only (chymotrypsin): 100%
Structure (SMILES): COc1ccc(C[C@H](NS(=O)(=O)N2CCOCC2)C(=O)NC(Cc2csc(N)n2)C(=O)N[C@@H](CC2CCCCC2)[C@@H](O)[C@@H](O)CC(C)C)cc1 (single isomer, unassigned)

One block for each compound: values may come before it.
